The entries are a selection whose mix differs from that of the whole data set. The source made the active and inactive calls. Cut-off read from the data, not from the text of the source: active = activation above about 65%; inactive = the rest.
The compounds below were run against Lysosomal acid glucosylceramidase (Homo sapiens) (UniProt P04062) (assay: GBA activity enhancers in patient fibroblasts, primary screen, cell-based (AID 784;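 note: 0% = vehicle wells and 100% = positive control wells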)). Settings: L444P Gaucher fibroblasts, 4-MU-glucoside fluorescence, 3 days; at 10 µM; active compounds read high.

Protein sequences, listed by entry. Tags and fused reporters are not part of them. Lines headed by an entry give the natural chain unless they say otherwise; changes in a name come on top.
UniProt P04062: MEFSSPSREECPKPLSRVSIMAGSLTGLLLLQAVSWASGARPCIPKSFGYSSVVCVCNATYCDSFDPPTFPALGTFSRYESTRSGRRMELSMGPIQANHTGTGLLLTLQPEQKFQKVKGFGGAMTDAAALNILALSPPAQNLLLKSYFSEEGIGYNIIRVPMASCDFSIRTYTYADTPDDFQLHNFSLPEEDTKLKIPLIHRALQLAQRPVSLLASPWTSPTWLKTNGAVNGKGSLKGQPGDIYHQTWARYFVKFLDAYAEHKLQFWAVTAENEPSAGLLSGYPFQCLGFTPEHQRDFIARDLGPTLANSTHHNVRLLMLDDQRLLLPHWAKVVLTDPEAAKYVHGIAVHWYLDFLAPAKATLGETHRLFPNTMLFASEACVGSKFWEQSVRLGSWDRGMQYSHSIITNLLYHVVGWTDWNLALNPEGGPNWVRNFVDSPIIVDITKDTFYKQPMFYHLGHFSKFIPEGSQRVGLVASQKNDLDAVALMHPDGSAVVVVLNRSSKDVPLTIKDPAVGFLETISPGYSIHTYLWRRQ

Structure (SMILES)	activation
Clc1n[nH]nc1-c1nn[nH][15n]1	inactive: 1.06%
O=P1(Nc2ccccn2)COc2ccccc2OC1	inactive: 11.1%
O=P1(Nc2ccc(Br)cn2)COc2ccccc2OC1	inactive: 6.36%
O=P1(Nc2ncccn2)COc2ccccc2OC1	inactive: 6.44%
O=C(OC1CN2CCC1CC2)C12CC3CC(CC(C3)C1)C2 (centres undefined)	inactive: -22.1%
O=C(COc1ccccc1)OC1CN2CCC1CC2 (centres undefined)	inactive: -24%
CCc1nc2c(n1)c1c(non1O)c1c2no[n+]1[O-]	inactive: -44.7%
O=P1(Nc2nc3ccc(Cl)cc3s2)COc2ccccc2O1 (centres undefined)	inactive: -15.5%
c1nnnn1CCn1cnnn1	inactive: 11.9%

From PubChem BioAssay AID784 (The Scripps Research Institute Molecular Screening Center, 2007)
